Laboratory results: ChEMBL document CHEMBL1146745, “Studies on anti-Helicobacter pylori agents. Part 3: A novel, efficacious cephem derivative, FR193879” (Bioorg Med Chem Lett, 2004)

Sequences of proteins named here, by UniProt entry; tags and fusion partners are left off.
UniProt P62593, whole entry, looked up: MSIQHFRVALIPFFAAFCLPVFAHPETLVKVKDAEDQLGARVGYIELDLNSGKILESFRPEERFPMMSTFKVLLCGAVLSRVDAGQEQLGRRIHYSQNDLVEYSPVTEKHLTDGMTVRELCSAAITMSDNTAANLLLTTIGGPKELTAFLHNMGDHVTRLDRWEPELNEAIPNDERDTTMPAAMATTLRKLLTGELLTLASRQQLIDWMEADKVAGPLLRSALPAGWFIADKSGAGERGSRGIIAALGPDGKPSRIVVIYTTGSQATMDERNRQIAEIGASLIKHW

Experiments:
[1] = target: Beta-lactamase TEM (Escherichia coli) (UniProt P62593); experiment: Stability towards penicillinase was determined
[2] = target: Beta-lactamase TEM (Escherichia coli) (UniProt P62593); experiment: Stability towards beta-lactamase was determined in penicillinase

CC1(C)S[C@@H]2[C@H](NC(=O)[C@H](N)c3ccc(O)cc3)C(=O)N2[C@H]1C(=O)O [AMOXICILLIN]
Km [1]: 22 µg/mL | Vmax [2]: 2.94
